Among the data in BindingDB's records for doi:10.1007/s00044-012-0055-5 (n/a, 2013) are Ki values, retold here.

This assay deals with D(2) dopamine receptor (Homo sapiens) (UniProt P14416). Put plainly: Binding affinity to Homo sapiens (human) dopamine D2S receptor.

The Ki is a dissociation constant, usually derived from enzyme kinetics or from competition with a known ligand. Higher therefore signals lower affinity. For `O=c1[nH]c2cccc(N3CCN(Cc4ccccc4)CC3)c2[nH]1` [4-(4-Benzyl-piperazin-1-yl)-1,3-dihydro-benzoimidazol-2-one], the affinity corresponds to a Ki of 87 nM.
